Here are results for 69 compounds from PubChem BioAssay AID1239 (SRMLSC, 2008).

The entries are a selection whose mix differs from that of the whole data set. Active and inactive are the calls of the source. Rule as the data show it: active = fold change above about 3.3; inconclusive = no clear call, values can overlap the other calls; inactive = below that.

The test can be described thus: activators of NF-kB expression in neurons, primary screen, cell-based, HTS (AID 1239). To be noted: human neuronal cells, NF-kB reporter expression; at 12.5 µM; hits give high values.
As to `CP(=S)(Nn1cnnc1)Oc1ccccc1` (centres undefined), the fold change is inactive: 1.12.
As to `COc1ccccc1OP(C)(=O)Nc1ccccc1` (centres undefined), the fold change is inactive: 1.1.
On to `CP(=O)(Nc1ccccc1Br)Oc1ccccc1` (centres undefined), for which the fold change is inactive: 1.02.
For `CCOP(C)(=S)SCC(=O)NC(C)C(=O)O` (centres undefined), the fold change is inactive: 1.34.
For `CCOC(=O)c1ccc(NP(C)(=O)Oc2ccc(OC)cc2)cc1` (centres undefined) the value was inactive: 1; for `CP(=O)(Nc1ccccn1)Oc1ccc(Cl)cc1` (centres undefined), inactive: 0.94; for `CP(=O)(Oc1ccccc1)OC(c1ccccc1)C(F)(F)F` (centres undefined), inactive: 1.04.
`Cc1cccc(C)c1OP(C)(=O)Nc1ccc(SC(F)(F)F)cc1` (centres undefined): the fold change was inactive: 0.79.
For `Cc1cc(C)cc(OP(C)(=O)Nc2ccc(SC(F)(F)F)cc2)c1` (centres undefined) the value was inactive: 1.32.
For `CP(=O)(NC(=O)Nc1ccccc1)Oc1ccccc1` (centres undefined), the fold change was inactive: 1.15.
Consider `CCN(CC)CCCOC(=O)C(O)(c1ccccc1)c1ccccc1`, for which the fold change was inactive: 1.02.
For `CCOC(=O)c1ccc(NP(C)(=O)Oc2ccccc2)cc1` (centres undefined), the fold change is inactive: 1.01.
For `Cc1ccc(NP(C)(=O)Oc2ccccc2)c(C)c1` (centres undefined) the value was inactive: 1.21; for `COc1ccccc1OP(C)(=O)Nc1ccc(C)cc1` (centres undefined), inactive: 1.13; for `COc1ccc(OP(C)(=O)Nc2cccc(F)c2)cc1` (centres undefined), inactive: 1.16.
For the compound `COc1ccccc1OP(C)(=O)Nc1cc(Cl)ccc1C` (centres undefined), the fold change was inactive: 1.15.
For `Cc1cc(C)cc(OP(C)(N)=O)c1` (centres undefined) the value was inactive: 1.35; for `Cc1cccc(C)c1OP(C)(N)=O` (centres undefined), inactive: 1.21; for `CC(C)(C)c1ccc(OP(C)(=O)Nc2ccc(SC(F)(F)F)cc2)cc1` (centres undefined), inactive: 1.21.
Consider `O=[N+]([O-])c1ccc2c(c1)C=Nc1ccccc1O2`, for which the fold change is inactive: 2.37.
Consider `CC1=NCCc2c1[nH]c1ccccc21.O=[N+]([O-])c1cc([N+](=O)[O-])c(O)c([N+](=O)[O-])c1`, for which the fold change was inactive: 1.13.
For `CP(=O)(Nc1cccc(Br)c1)Oc1ccccc1` (centres undefined) the value was inactive: 1.19; for `Cc1cc(C)cc(OP(C)(=O)Nc2ccccn2)c1` (centres undefined), inactive: 1.
For `Cc1ccc(C)c(NP(C)(=O)Oc2ccccc2)c1` (centres undefined) the value was inactive: 1.04.
For the compound `Cc1cc(C)cc(OP(C)(=O)Nc2ccc(C)cc2C)c1` (centres undefined), the fold change was inactive: 0.99.
For the compound `CCOC(=O)c1ccc(NP(C)(=O)Oc2cc(C)cc(C)c2)cc1` (centres undefined), the fold change is inactive: 1.31.
Regarding `Cc1nc2ccc3ccccc3c2s1.O=[N+]([O-])c1cc([N+](=O)[O-])c(O)c([N+](=O)[O-])c1`, the fold change is inactive: 1.3.
On to `O=[N+]([O-])c1cc([N+](=O)[O-])c(-n2nnc3ccccc32)c([N+](=O)[O-])c1`, for which the fold change was inactive: 0.95.
Regarding `CN1CCCCC1COC(=O)C1(O)c2ccccc2CCc2ccccc21` (centres undefined), the fold change is inactive: 1.04.
Consider `COc1ccccc1OP(C)(=O)Nc1c(C)cccc1C` (centres undefined), for which the fold change was inactive: 1.15.
For the compound `CP(=O)(Nc1ccc(SC(F)(F)F)cc1)Oc1ccccc1` (centres undefined), the fold change was inactive: 1.16.
Regarding `CCCOc1ccc(NP(C)(=O)Oc2ccc(Cl)cc2)cc1` (centres undefined), the fold change is inactive: 1.01.
Turning to `O=[N+]([O-])c1cc([N+](=O)[O-])c(NCC2CCS(=O)(=O)C2)c([N+](=O)[O-])c1` (centres undefined), the fold change is inactive: 1.05.
Take `COc1ccc(OP(C)(=O)Nc2cccc(Br)c2)cc1` (centres undefined): the fold change was inactive: 0.94.
On to `COc1ccc(NP(C)(=O)Oc2ccccc2OC)cc1` (centres undefined), for which the fold change was inactive: 1.33.
Turning to `CN(C)CCOC(=O)C(O)(c1ccccc1)C1CCCCC1` (centres undefined), the fold change was inactive: 1.05.
As to `CP(=O)(Nc1ccc2c(c1)OCCO2)Oc1ccccc1` (centres undefined), the fold change was inactive: 0.83.
Then `Cc1ccccc1NP(C)(=O)Nc1ccccc1C`, with inactive: 1.26; and `CCOP(C)(=S)SCC(=O)NC(C)(CC)C(=O)O` (centres undefined), with inactive: 1.53; and `O=C(OCCN1CCN(CCOCc2ccccc2)CC1)C(O)(c1ccccc1)c1ccccc1`, with inactive: 1.13.
Consider `CC(C)c1ccc(OP(C)(=O)Nc2ccc(SC(F)(F)F)cc2)cc1` (centres undefined), for which the fold change was inactive: 1.26.
Turning to `CP(=O)(Nc1ccccc1F)Oc1ccccc1` (centres undefined), the fold change was inactive: 1.12.
Then `CCN(CC)CCCOC(=O)C(O)(c1ccccc1)C1CCCCC1` (centres undefined), with inactive: 1.07; and `CP(=O)(Nc1ccccc1)Oc1ccc(F)cc1` (centres undefined), with inactive: 1.17.
As to `COc1ccc(OP(C)(=O)Nc2ccc(SC(F)(F)F)cc2)cc1` (centres undefined), the fold change is inactive: 0.85.
As for `CCOC(=O)c1ccc(NP(C)(=O)Oc2ccc(F)cc2)cc1` (centres undefined), the fold change is inactive: 1.39.
As to `Cc1nc2ccc3ccccc3c2o1.O=[N+]([O-])c1cc([N+](=O)[O-])c(O)c([N+](=O)[O-])c1`, the fold change was inactive: 1.87.
In the case of `CP(=O)(OCCOc1ccccc1)OCCOc1ccccc1`, the fold change is inactive: 1.04.
Turning to `CP(=O)(Nc1ccc(Cl)cc1Cl)Oc1ccccc1` (centres undefined), the fold change was inactive: 1.27.
Then `Cc1cc(C)cc(OP(C)(=O)Nc2cccc(C(F)(F)F)c2)c1` (centres undefined), with inactive: 1.08; and `COc1ccc(OP(C)(=O)Nc2ccccc2Br)cc1` (centres undefined), with inactive: 1.15; and `COc1ccccc1OP(C)(=O)Nc1ccc(C)c(C)c1` (centres undefined), with inactive: 1.14.
In the case of `O=[N+]([O-])c1cc([N+](=O)[O-])c(Nc2ccccn2)c([N+](=O)[O-])c1`, the fold change is inactive: 0.48.
For `Cc1c(NP(C)(=O)Oc2ccc(C(C)C)cc2)c(=O)n(-c2ccccc2)n1C` (centres undefined) the value was inactive: 1.07; for `CCc1ccc(OP(C)(=O)O)cc1`, inactive: 1.12; for `COc1ccccc1OP(C)(=O)Nc1ccc(C)cc1C` (centres undefined), inactive: 0.88.
Then `CP(=O)(Nc1ccccn1)Oc1ccccc1` (centres undefined), with inactive: 1.31; and `CN(C)CCOC(=O)C(O)(c1ccccc1)C1CCCC1` (centres undefined), with inactive: 1.04; and `COc1ccc(OP(C)(=O)Nc2ccccn2)cc1` (centres undefined), with inactive: 0.99.
Regarding `CP(=O)(Nc1ccc(Cl)cc1)Oc1ccc(F)cc1` (centres undefined), the fold change was inactive: 1.2.
As for `CC(C)(C)c1ccc(OP(C)(=O)O)cc1`, the fold change is inactive: 0.88.
For the compound `COc1ccccc1OP(C)(=O)Nc1ccccc1Br` (centres undefined), the fold change is inactive: 1.04.
As to `CN(C)C(=O)c1c([N+](=O)[O-])cc([N+](=O)[O-])cc1[N+](=O)[O-]`, the fold change is inactive: 0.53.
On to `COc1ccc(OP(C)(=O)Nc2ccc(Br)cc2)cc1` (centres undefined), for which the fold change is inactive: 1.19.
Turning to `CCN(CC)CC(O)COC(=O)C(O)(c1ccccc1)C1CCCCC1` (centres undefined), the fold change was inactive: 1.05.
Turning to `CCc1ccc(OP(C)(=O)Nc2cccnc2)cc1` (centres undefined), the fold change was inactive: 1.09.
On to `CP(=O)(Oc1ccccc1)N1CCOC1=O` (centres undefined), for which the fold change is inactive: 1.34.
Turning to `CP(=O)(OC12CC3CC(CC(C3)C1)C2)OC12CC3CC(CC(C3)C1)C2`, the fold change was inactive: 0.9.
For `CCOC(=O)c1ccc(NP(C)(=O)Oc2ccc(Cl)cc2)cc1` (centres undefined), the fold change is inactive: 1.24.
